Literature values in US8946301B2, “Targeting of T-lymphocytes to treat amyotrophic lateral sclerosis” (ALS Therapy Development Institute, priority 2011, dated 2015).

By UniProt entry, the sequences of proteins in these tests, tags left out.
UniProt P21453, whole entry: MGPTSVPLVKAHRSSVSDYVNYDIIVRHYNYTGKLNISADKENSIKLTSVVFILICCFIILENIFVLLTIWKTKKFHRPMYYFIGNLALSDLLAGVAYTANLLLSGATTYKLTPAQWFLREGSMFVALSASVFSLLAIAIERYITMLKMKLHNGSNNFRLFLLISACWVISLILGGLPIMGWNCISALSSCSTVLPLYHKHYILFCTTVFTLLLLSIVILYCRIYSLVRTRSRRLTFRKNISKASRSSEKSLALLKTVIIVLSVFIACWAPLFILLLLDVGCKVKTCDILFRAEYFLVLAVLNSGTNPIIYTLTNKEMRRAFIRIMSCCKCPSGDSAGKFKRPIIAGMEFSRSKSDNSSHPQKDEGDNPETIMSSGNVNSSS

Molecular target: T1, sphingosine-1-phosphate-1 receptor (Homo sapiens, UniProt P21453)
T1 construct: host or cells: thymocytes and lymphocytes
Conditions: on thymocytes and lymphocytes, after phosphorylation; Kappos et al. 2006; cited from earlier work

## CCCCCCCCc1ccc(CC[C@](N)(CO)COP(=O)(O)O)cc1 [fingolimod-P]
  action at sphingosine-1-phosphate-1 receptor: superagonist
